Results reported in patent US8993718B2, “Methods and compositions for detecting and modulating O-glycosylation” (President and Fellows of Harvard College, priority 2007, dated 2015).

By UniProt entry, the sequences of proteins in these tests, tags left out. Residues count along the entry.
UniProt O15294, 382-1046: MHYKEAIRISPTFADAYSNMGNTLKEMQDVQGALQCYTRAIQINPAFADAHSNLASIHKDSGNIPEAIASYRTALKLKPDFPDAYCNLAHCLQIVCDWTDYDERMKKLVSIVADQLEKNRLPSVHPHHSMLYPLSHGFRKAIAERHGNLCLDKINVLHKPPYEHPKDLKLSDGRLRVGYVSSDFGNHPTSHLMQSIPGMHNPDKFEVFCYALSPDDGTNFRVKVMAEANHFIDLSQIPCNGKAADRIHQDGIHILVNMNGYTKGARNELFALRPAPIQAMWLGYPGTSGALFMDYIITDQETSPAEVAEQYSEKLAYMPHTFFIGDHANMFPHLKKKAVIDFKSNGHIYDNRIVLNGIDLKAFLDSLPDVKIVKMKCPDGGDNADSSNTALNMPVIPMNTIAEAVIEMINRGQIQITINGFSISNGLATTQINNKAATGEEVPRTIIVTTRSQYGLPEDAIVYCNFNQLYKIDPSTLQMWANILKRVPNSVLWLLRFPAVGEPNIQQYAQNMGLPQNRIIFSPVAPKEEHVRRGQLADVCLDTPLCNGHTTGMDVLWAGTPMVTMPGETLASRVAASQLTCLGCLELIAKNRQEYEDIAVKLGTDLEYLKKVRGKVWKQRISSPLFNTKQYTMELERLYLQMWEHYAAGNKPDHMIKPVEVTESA

Target: sOGT (Homo sapiens, UniProt O15294)
Assay: Radiometric secondary assay (hit validation, UDP-14C-GlcNAc, CK23K polypeptide)
Conditions: 250 μM CK23K polypeptide, 6.25 μM UDP-14C-GlcNAc, eight point curve
Protocol: To validate the hits from the high throughput screen, a radiometric secondary assay was used (adapted from that described in described in PCT Application PCT/US2007/008806, which was filed Apr. 11, 2007). […] The CK23K polypeptide concentration was set at 250 μM, which is roughly 1.1× the Km value. The logic behind this was to mimic as much as possible the sub-Kn, FRET-peptide concentration present in the primary assay, so that polypeptide competitive inhibitors would not be swamped out by the higher CK23K concentrations used to screen the donor displacement assay. In addition, the buffer used in high throughput screening, which had no NaCl and contains detergents, was used in secondary screening. […] A relationship existed between hit potency in the primary and secondary assay (FIG. 8), though there seemed to be a group of structurally unrelated weak validated inhibitors (IC50 125-250 μM) that inhibited strongly in the primary assay.
Hits were examined using the secondary assay as described in PCT Application PCT/US2007/008806, which was filed Apr. 11, 2007, with minor modifications. […] Reactions were run for 20-30 minutes, then spotted on Whatman P81 phosphocellulose discs, washed three times for five minutes in 1% phosphoric acid, and counted by liquid scintillation counting. […]

## CCOC(=O)C(C(C)C)C(N)Cc1ccc(F)cc1 (stereo not shown)
  IC50: 900 nM
